{"source": "patent US9783495B2", "about": "“Treatment for lipodystrophy” (Cadila Healthcare Limited, priority 2011, dated 2017)", "assay": "Solubility of the investigational product", "type": "physicochemical", "settings": "white, amorphous powder", "protocol": "The drug was supplied as uncoated tablets of 4 mg of the active ingredient."}
{"substance": "(S)-α-Ethoxy-4-[2-[-methyl-5-[4-(methylthio)phenyl]-1H-pyrrol-1-yl]ethoxy] benzenepropanoic acid magnesium salt [compound of formula (I)]", "values": [{"measurement": "solubility in dichloromethane", "value": "freely soluble"}, {"measurement": "solubility in dimethyl sulfoxide", "value": "freely soluble"}, {"measurement": "solubility in methanol", "value": "slightly soluble"}, {"measurement": "solubility in water", "value": "insoluble"}]}
